Data taken from publication PMC5828360, “Identification and characterization of highly versatile peptide-vectors that bind non-competitively to the low-density lipoprotein receptor for in vivo targeting and delivery of small molecules and protein cargos” (PLoS ONE, 2018).

Protein sequences, listed by entry. Tags and fused reporters are not part of them. Residues count along the entry.
UniProt P02786, whole entry: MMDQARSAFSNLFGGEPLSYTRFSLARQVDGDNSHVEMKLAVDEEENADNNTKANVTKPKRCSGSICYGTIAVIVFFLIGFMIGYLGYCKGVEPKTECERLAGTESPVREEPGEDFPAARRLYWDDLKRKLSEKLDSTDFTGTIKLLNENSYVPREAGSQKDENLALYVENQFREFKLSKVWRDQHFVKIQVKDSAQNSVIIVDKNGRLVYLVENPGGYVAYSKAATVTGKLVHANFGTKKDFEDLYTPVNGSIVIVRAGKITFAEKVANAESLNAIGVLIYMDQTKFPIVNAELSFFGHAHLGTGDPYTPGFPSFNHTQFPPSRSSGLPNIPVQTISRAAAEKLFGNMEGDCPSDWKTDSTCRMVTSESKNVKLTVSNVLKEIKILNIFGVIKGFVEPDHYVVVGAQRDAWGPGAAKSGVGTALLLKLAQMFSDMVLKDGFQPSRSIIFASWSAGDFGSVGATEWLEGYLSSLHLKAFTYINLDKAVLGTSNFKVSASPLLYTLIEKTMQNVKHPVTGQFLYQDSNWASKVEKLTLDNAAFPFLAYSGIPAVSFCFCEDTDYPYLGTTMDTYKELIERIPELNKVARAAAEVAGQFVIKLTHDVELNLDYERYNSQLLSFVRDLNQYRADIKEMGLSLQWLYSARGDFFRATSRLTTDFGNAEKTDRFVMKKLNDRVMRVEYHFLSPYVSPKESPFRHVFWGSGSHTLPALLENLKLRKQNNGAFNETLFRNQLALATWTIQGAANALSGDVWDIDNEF
UniProt P01130, 22-860: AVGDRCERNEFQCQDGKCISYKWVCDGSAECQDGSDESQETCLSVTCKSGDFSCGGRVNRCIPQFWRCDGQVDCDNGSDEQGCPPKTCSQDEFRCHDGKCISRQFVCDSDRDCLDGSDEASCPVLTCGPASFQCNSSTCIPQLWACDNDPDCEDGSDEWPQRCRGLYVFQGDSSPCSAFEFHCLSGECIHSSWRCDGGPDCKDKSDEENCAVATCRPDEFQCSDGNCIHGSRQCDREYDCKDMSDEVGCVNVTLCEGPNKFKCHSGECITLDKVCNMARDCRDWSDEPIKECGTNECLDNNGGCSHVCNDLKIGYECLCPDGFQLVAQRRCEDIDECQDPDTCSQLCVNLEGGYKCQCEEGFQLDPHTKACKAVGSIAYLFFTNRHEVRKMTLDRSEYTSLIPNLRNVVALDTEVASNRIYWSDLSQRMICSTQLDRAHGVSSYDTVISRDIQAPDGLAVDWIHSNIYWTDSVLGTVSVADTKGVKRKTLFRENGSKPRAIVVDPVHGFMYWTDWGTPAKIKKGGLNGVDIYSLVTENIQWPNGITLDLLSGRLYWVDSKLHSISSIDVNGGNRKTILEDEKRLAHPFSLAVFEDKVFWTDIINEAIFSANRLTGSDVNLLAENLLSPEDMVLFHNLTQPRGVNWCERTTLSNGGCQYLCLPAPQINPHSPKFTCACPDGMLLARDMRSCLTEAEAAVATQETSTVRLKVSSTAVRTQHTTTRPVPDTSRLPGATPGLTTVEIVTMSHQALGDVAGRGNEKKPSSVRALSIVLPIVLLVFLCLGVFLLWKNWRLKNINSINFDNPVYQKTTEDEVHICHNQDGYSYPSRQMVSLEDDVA
UniProt P01130, 22-788 limits assumed: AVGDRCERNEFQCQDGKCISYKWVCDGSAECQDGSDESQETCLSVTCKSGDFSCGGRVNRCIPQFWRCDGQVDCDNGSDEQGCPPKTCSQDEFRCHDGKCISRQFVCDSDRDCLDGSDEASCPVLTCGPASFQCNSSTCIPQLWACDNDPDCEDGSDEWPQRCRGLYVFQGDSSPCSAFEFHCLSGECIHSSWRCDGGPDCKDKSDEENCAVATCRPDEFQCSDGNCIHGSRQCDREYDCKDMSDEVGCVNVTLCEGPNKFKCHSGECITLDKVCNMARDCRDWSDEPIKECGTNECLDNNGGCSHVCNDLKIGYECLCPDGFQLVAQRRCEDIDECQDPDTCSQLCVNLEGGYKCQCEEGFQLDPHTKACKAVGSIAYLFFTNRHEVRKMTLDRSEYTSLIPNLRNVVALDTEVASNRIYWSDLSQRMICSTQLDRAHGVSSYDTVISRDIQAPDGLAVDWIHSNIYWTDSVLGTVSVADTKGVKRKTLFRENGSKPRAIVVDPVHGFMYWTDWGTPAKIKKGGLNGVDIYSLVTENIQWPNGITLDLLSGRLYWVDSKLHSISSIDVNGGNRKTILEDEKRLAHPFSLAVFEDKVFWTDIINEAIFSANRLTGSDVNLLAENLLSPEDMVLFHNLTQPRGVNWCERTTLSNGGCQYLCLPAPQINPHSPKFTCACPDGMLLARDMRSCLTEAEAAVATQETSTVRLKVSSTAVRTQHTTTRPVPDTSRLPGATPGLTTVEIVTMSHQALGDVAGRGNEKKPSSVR

Columns and labels:
hTfR = target: T1, hTfR (Homo sapiens, UniProt P02786); assay: Immunocytochemistry on CHO-hTfR-EGFP / CHO-EGFP control cell lines; format: cell-based; details: CHO-hTfR-EGFP or CHO-EGFP, 10 μM, 1 hr 37°C
T1 construct: Full length coding regions for hLDLR, mLDLR, rLDLR and hTfR were amplified by RT-PCR; expressed in transfected cells

hLDLR [1] = target: T2, hLDLR (Homo sapiens, UniProt P01130); assay: Immunocytochemistry, binding/endocytosis on CHO-hLDLR-EGFP cells; format: cell-based; set-up: Full length coding regions for hLDLR, mLDLR, rLDLR and hTfR were amplified by RT-PCR; expressed in transfected cells; details: 1 hr 37°C, 10 μM S-Tag or siRNA conjugates, Fc conjugates 100 nM to 0.1 nM
hLDLR [2] = target: T2, hLDLR; assay: Image J quantification of co-localization with hLDLR-GFP; format: cell-based; set-up: Full length coding regions for hLDLR, mLDLR, rLDLR and hTfR were amplified by RT-PCR; expressed in transfected cells; details: CHO-hLDLR-GFP, 10 μM, n = 3
hLDLR [3] = target: T2, hLDLR; assay: Surface Plasmon Resonance on immobilized hLDLR; set-up: purchased Sino Biological; details: SPR Biacore T200, 25°C, HEPES pH7.4 running buffer, single-cycle kinetics, Langmuir 1:1 model, at least three independent experiments; (-) No binding

CSCC[C@H](NC(=O)[C@H](Cc1c[nH]cn1)NC(=O)[C@H](CCC(N)=O)NC(=O)[C@H](CCCNC(=N)N)NC(=O)[C@H](CCC(=O)O)NC(=O)[C@H](Cc1ccccc1)NC(=O)[C@H](CCCCN)NC(=O)[C@H](C)NC(=O)[C@H](C)NC(=O)[C@H](C)NC(=O)[C@@H](NC(=O)[C@H](CCC(=O)O)NC(=O)[C@H](CCCCN)NC(=O)CNC(=O)CNC(=O)CNC(=O)[C@H](CCCNC(=N)N)NC(=O)[C@@H]1CCCN1C(=O)[C@H](CC(=O)O)NC(=O)[C@@H]1CSSC[C@H](NC(=O)[C@H](CC(C)C)NC(=O)CNC(=O)[C@H](CO)NC(=O)[C@H](CC(=O)O)NC(C)=O)C(=O)N[C@@H](CCSC)C(=O)N2CCC[C@H]2C(=O)N[C@@H](CCCNC(=N)N)C(=O)N[C@@H](CC(C)C)C(=O)N[C@@H](CCCNC(=N)N)C(=O)NCC(=O)N1)[C@@H](C)O)C(=O)N[C@@H](CC(=O)O)C(=O)N[C@@H](CO)C(N)=O
binding on control cell lines (hTfR): no binding was observed | binding/endocytosis on hLDLR expressing cells (hLDLR [1]): bound the CHO-hLDLR-EGFP cells

CCC(=O)N[C@H](C(=O)N[C@@H](CCC(=O)O)C(=O)N[C@@H](CCC(=O)O)C(=O)N[C@@H](CC(C)C)C(=O)N[C@@H](CCCNC(=N)N)C(=O)N[C@H](C(=O)N[C@@H](CCCNC(=N)N)C(=O)N[C@@H](CC(C)C)C(=O)N[C@@H](C)C(=O)N[C@@H](CO)C(=O)N[C@@H](Cc1c[nH]cn1)C(=O)N[C@@H](CC(C)C)C(=O)N[C@@H](CCCNC(=N)N)C(=O)N[C@@H](CCCCN)C(=O)N[C@@H](CC(C)C)C(=O)N[C@@H](CCCNC(=N)N)C(=O)N[C@@H](CCCCN)C(=O)N[C@@H](CCCNC(=N)N)C(=O)N[C@@H](CC(C)C)C(=O)N[C@@H](CC(C)C)C(=O)N[C@@H](CCCNC(=N)N)C(=O)N[C@@H](CC(=O)O)C(=O)N[C@@H](C)C(=O)NCC(=O)NCC(=O)NCC(=O)N[C@@H](CCCCN)C(=O)N[C@@H](CCC(=O)O)C(=O)N[C@H](C(=O)N[C@@H](C)C(=O)N[C@@H](C)C(=O)N[C@@H](C)C(=O)N[C@@H](CCCCN)C(=O)N[C@@H](Cc1ccccc1)C(=O)N[C@@H](CCC(=O)O)C(=O)N[C@@H](CCCNC(=N)N)C(=O)N[C@@H](CCC(N)=O)C(=O)N[C@@H](Cc1c[nH]cn1)C(=O)N[C@@H](CCSC)C(=O)N[C@@H](CC(=O)O)C(=O)N[C@@H](CO)C(N)=O)[C@@H](C)O)C(C)C)[C@@H](C)O [ApoE1-S-Tag]
percentage of hLDLR that co-localized with the S-Tag peptide (hLDLR [2]): under 10%

SiGLOCycloB-MCC-(Pr-cM"Thz"RLRG"Pen"-G-(CH2)2-S) (disulfide) [SiGLO CyclophilineB-VH4127]
binding/endocytosis on hLDLR expressing cells (hLDLR [1]): bound the hLDLR expressing cell line and was endocytosed

hIgG1Fc-SMCC- (Pr- cRPLGRMC-G-(CH2)2-S)2 (disulfide) [(VH4Sc)2-Fc, human IgG1-Fc chemically conjugated to scrambled VH4Sc peptide via sulfo-SMCC]
Kd (hLDLR [3]): > 80 nM | binding/endocytosis on hLDLR expressing cells (hLDLR [1]): No uptake
